# Yeast mating assay 1: variants of the scFv Ab-14

Target: peptide PDVDLGDISGINAS, taken from heptad repeat 2 (HR2) of SARS-CoV-2 spike.

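The parent was found by panning a naive human phage display library on the peptide. AAYL49 was designed without a model: most single CDR substitutions and a random sample of double and triple ones. Affinity was read by AlphaSeq, a pooled yeast mating assay with surface-displayed partners. Mating (16 h, 30 °C) was followed by selection of diploids and sequencing of their barcodes. A regression on co-assayed BCL2-family reference pairs converts the normalised counts of each replicate to an apparent Kd. There are three technical replicates.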

Ab-14 is the parent antibody, in scFv form: VH, then the linker GGGGSGGGGSGGGGS, then VL. The light chain is unchanged in all variants.
VH: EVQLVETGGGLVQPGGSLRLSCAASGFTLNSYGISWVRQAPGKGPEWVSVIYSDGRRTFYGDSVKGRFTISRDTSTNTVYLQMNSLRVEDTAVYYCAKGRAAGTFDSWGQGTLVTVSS
VL: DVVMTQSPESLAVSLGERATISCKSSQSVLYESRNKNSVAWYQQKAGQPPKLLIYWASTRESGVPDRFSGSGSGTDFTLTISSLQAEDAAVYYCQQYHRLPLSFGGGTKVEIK

Each variant is given by its three heavy chain CDRs, as the data file delimits them; those of the parent are GFTLNSYGIS, VIYSDGRRTFYGDSVK, GRAAGTFDS.
Values are log10 of the apparent Kd in nM; lower means stronger binding.
An entry "ND" has no value in the source: the pair was not observed among the diploids in that replicate. This suggests poor binding but is not conclusive.

CDR-H1,CDR-H2,CDR-H3,log10 Kd (nM) by replicate,signal with controls
GFTLNSYGIS,VIYSDGQWTFDGDSVK,GRAAGTFDS,ND ND ND,1 of 9 (5.45)
GFTLNSYGAS,VIYSDGRRTFYGDSVK,GRAAGYFDS,ND ND 4.71,1 of 9 (4.48)
GFTLGSYGIS,VIYSDGRRTFNGDSVK,GRAAGTFDS,ND ND ND,0 of 9
GFTLNSYGIS,VIYSDGRRTFYGDSVK,GRCAGLFDS,ND ND ND,0 of 9
GFTLNSYGIS,TKYSDGRRTFYGLSVK,GRAAGTFDS,3.58 ND ND,2 of 9 (4.26)
GFTLNSYGIS,VIYSCGRRTFYGDSVK,NRAQGTFDS,ND ND ND,0 of 9
GFTPNSHGIS,VIYSDGRRTFYGDSVK,GRAAGTFDS,5.63 3.72 4.52,2 of 9 (4.70)
GLTLNSYGIS,VIYMDGRRVFYGDSVK,GRAAGTFDS,ND ND ND,0 of 9
GFTLNSYGIS,VIYSDGRTTFYGDSVK,GPAAGTVDS,ND ND 4.87,2 of 9 (4.14)
GFTWNSYGIG,VIYSCGRRTFYGDSVK,GRAAGTFDS,ND ND ND,0 of 9
GFTLNSYGIS,VIYSDGRRTFYGDSVK,GRSWGEFDS,ND ND ND,3 of 9 (4.13)
GIELNSTGIS,VIYSDGRRTFYGDSVK,GRAAGTFDS,4.93 3.28 ND,1 of 9 (3.14)
GFTLNSYGIA,VIYSVGRRTFYGDSVK,GRYAGTFDS,ND 4.67 4.82,4 of 9 (4.30)
GFTLNSYGIS,VIYSDGRRTFYGDSVD,GVAEGTFDS,3.31 3.16 2.51,2 of 9 (3.74)
GFTLNSYGIS,VIYSDGRRTFYGQSVK,GRACGTFDS,ND ND ND,0 of 9
GFTLNVYGIS,VIYSDGRRTFYFDSVK,GRSAGTFDS,ND ND 3.82,2 of 9 (3.44)
GFHLNSYGIS,VIYSDGRRTFYGDSVK,GRHAGTFCS,1.25 1.37 1.06,1 of 9 (2.74)
GFTTNSYGIS,VYYSDGRRTFYDDSVK,GRAAGTFDS,ND ND ND,0 of 9
GETWNSYGIS,VIYSDKRRTFYGDSVK,GRAAGTFDS,ND ND ND,0 of 9
GFTLNSYGIS,VIYWDGRRTGYGDSVK,GRAAGTFDS,2.51 2.68 2.74,0 of 9
GFTLNSVGIS,VIYSDKRRTFSGDSVK,GRAAGTFDS,ND 3.12 ND,1 of 9 (3.79)
GFTLNPYGIS,VIYSDGRRTFYGDSVK,GRAAETFDS,ND ND ND,0 of 9
GFTLNSYGIG,VIYSDLRRTFYGDSVK,GRVAGTFDS,ND ND 3.73,2 of 9 (3.68)
GFTLNSSGIS,PIYSDGHRTFYGDSVK,GRAAGTFDS,ND ND 5.72,4 of 9 (3.95)
GFTLNSYGIS,VIYSEGRRTFYGDSVK,GRAAGGFDS,ND ND ND,1 of 9 (2.23)
GFTLNSYGIK,QIYSDGRRTFYGDSVK,GRAAGTFDS,ND ND 3.76,2 of 9 (2.92)
GFTLNSHGIS,VIYSDGRKTFYGDSVK,GRAAGTKDS,ND ND 4.72,5 of 9 (4.48)
GFHLNSDLIS,VIYSDGRRTFYGDSVK,GRAAGTFDS,ND 3.99 4.22,0 of 9
GFTLNSYGIS,VWYNDGRRTFYGESVK,GRAAGTFDS,ND ND 4.47,2 of 9 (3.62)
GFTLNCYGIS,VIYSDGRRTFYGDNVK,GRFAGTFDS,2.94 1.99 2.74,0 of 9
GFTLNSYGIS,VIYSDGRRTTYGDQVK,GRAAQTFDS,ND 2.14 2.56,0 of 9
GFTLNKYGIS,VIYSDGRRTFYGDSVL,GRAAGTIDS,0.96 1.26 1.33,6 of 9 (3.78)
GFTLNSYGAS,VIYSDGRRTFYGDSVK,GRAAGTFDN,ND 2.79 ND,1 of 9 (3.66)
GFTLNSYGIS,VIYSDGRRTYYGDCVT,GRAAGTFDS,2.51 1.97 2.45,1 of 9 (4.17)
GFTLNSYGIS,CIYSDGRRTFYGDSVK,GRAKGTFDS,5.25 ND ND,2 of 9 (4.56)
GFTLNSYGSS,VIYSDGRRTFYGRSVK,GWAAGTFDS,ND ND 3.67,2 of 9 (3.58)
GFTLNSYGIS,VIYSDGMRTFYGDSVK,GRAAGTFDH,1.95 1.57 1.67,2 of 9 (3.50)
GFTLNSYGIS,VIYSDGRRTRYGDSVK,GCAAGTFDS,2.81 ND 3.21,2 of 9 (4.69)
PFTLNSYGIS,VIYSDGRRTFYGDSVK,GRDAGTCDS,5.47 2.66 3.51,0 of 9
GFELNSYGIS,VIISDGDRTFYGDSVK,GRAAGTFDS,ND ND 4.04,0 of 9
GFTLNSYGIL,VIYSDGRRTFYGDSVK,GRAAGTHDE,ND ND ND,0 of 9

Three control strains display no target. For library AAYL49, 15% of the pairings with them gave a signal, with a median of 4.06 and one signal in twenty below 2.83, so weak values seen in few replicates may be background. The control count says in how many pairings with the empty strains this scFv gave a signal, with their mean in brackets.

Source: Engelhart et al. 2022 (doi:10.1038/s41597-022-01779-4), MIT Lincoln Laboratory and A-Alpha Bio; data file from the FLAb repository.